These results are taken from paper PMC9571290, “Preliminary Structure–Activity Relationship Study of the MMV Pathogen Box Compound MMV675968 (2,4-Diaminoquinazoline) Unveils Novel Inhibitors of Trypanosoma brucei brucei” (Molecules, 2022).

The structures appear in SMILES notation.

This data set is described as follows: cytotoxicity against Vero cells (resazurin viability assay). The conditions noted are these: African green monkey. On the procedure: The resulting pellet was resuspended and counted in a Neubauer chamber in the presence of trypan blue to exclude nonviable cells colored in blue. Once the cell load was estimated, they were either used for the next passage in a new flask or processed for the cytotoxicity assay.
Briefly, Vero cells at a density of 10^4 cells per well were plated in 100 µL of complete DMEM and incubated overnight to allow cell attachment. Plates were then controlled under an inverted fluorescence microscope (Lumascope LS520) to ensure adherence, sterility and cell integrity. Thereafter, culture medium from each well was carefully emptied, and plates were filled with 90 µL of fresh complete medium followed by the addition of 10 µL of serial 5-fold dilutions of compound solutions. […] Fluorescence was then read using a Magelan Infinite M200 fluorescence multiwell plate reader (Tecan) with excitation and emission wavelengths of 530 and 590 nm, respectively. The percentage of cell viability was calculated from readouts, and the median cytotoxic concentration (CC50) for each compound was deduced from concentration–response curves using GraphPad Prism 8.0 software as described above. Selectivity indexes were then determined for each test substance as follows: SI = CC50(Vero cells)/IC50(T. brucei brucei).

For the molecule `COc1cc(NC(C)CCCN)c2ncccc2c1` (stereo not shown) [MMV000023, Primaquine, reference compound], the cytotoxic concentration (CC50) at 48 h was 43.3 ± 0.4 µM.
